From PubChem BioAssay
ASM inhibitor = human S-ASM enzyme inhibition; P17405; placental ASM, HMU-PC fluorogenic substrate, 60 min; Potency, µM (top dose mostly 57.5 µM), hits mostly inhibitors; 340,000 compounds, 0.006% hits; AID 504937; active means well fitted inhibition curve with a large enough effect; inconclusive means small, poorly fitted or top-dose-only effect; inactive means no such curve, though single readings can be large or run the other way
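qHTS format. ASM enzyme prepared from human placenta hydrolyses the fluorogenic substrate HMU-PC0 (9 uM final) over 60 min at 37 °C after a 10 min compound preincubation.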
gsp ag = agonists of gsp mutant (McCune-Albright syndrome). gsp mutant cells, cAMP HTRF, 30 min. Potency, µM (series often up to 76.9 µM), usual class: activators. 340,000 compounds, 0.13% hits. AID 624287; active means well fitted activation curve with a large enough effect; inconclusive means small, poorly fitted or top-dose-only effect, or another doubt; inactive means no such curve, though single readings can be large or run the other way; cell line not stated here;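 further: phosphodiesterase inhibitor Ro 20-1724 added with compounds to block cAMP breakdown; nearly all actives have a fitted effect of over 60% in size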
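Cells stably selected in G418 were plated at 2000/well, grown 16-24 hr, then given compounds in DMSO with the PDE inhibitor […] (300 uM solution added) for 30 min at 37C; cAMP was read by HTRF.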
Rango release inh = inhibitors of RanGTP-induced Rango-importin beta complex dissociation. O95149+P62826. AID 540253. Biochemical FRET Rango-importin beta, RanGTP-induced dissociation. 340,000 compounds, 0.071% hits. Potency, µM (top dose mostly 46.1 µM); further: nearly all actives have a fitted effect of over 45% in size
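Compounds sat 5 min at room temperature with 0.1 uM Rango biosensor plus 0.25 uM importin beta, then FRET pre-read. RanGTP-RCC1 (0.6 uM Ran, 2mM GTP, 0.2 uM RCC1) added for 45 min, and the CFP/YFP post-read measured blocked complex dissociation.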
Rango complex inh = Rango-importin beta binding inhibition; Q14974; Rango CFP/YFP FRET sensor + importin beta, 45 min; Potency, µM (doses to about 92.2 µM); 340,000 compounds, 0.031% hits; further: nearly all actives have a fitted effect of over 15% in size
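FRET biosensor (snurportin 1 IBB flanked by EYFP and cerulean), 50 nM, with compound 5 min, then 0.125 microM importin beta in PBS, 1 mM DTT, 0.02% Tween-20, 0.1% BSA. CFP/YFP ratio read after 45 min at room temperature; pre-read flags interference.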
gsp antag = antagonizes gsp, the McCune-Albright syndrome mutation. gsp-mutant cells, cAMP HTRF, 30 min. Potency, µM (series often up to 76.9 µM), most hits filed as inhibitors. 340,000 compounds, 0.4% hits. AID 624288; calls by dose curve; cell line not stated here;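 further: intracellular cAMP measured with PDE inhibitor Ro 20-1724 present during compound exposure; nearly all actives have a fitted effect of over 65% in size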
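Cells, 2000/well, grown 16–24 h in DMEM 10% FBS with 0.5 mg/ml G418, then compounds plus […] (300 uM addition stock), 30 min at 37C. cAMP read by HTRF (cAMP-d2 and anti-cAMP antibody-K in lysis buffer) after 30 min RT.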
A number is an active result; - = inactive; ? = inconclusive; . = no result; [ ] = dose if it differs, or a comment. This is a sample that favours compounds with a hit; in the whole collection about 0.67% have one here. Unless noted, the call rests on the fitted dose curve.

SMILES	ASM inhibitor	gsp ag	Rango release inh	Rango complex inh	gsp antag
COc1cccc(S(=O)(=O)N(C)C[C@H]2OCc3cnnn3CCCC(=O)N([C@@H](C)CO)C[C@H]2C)c1	.	-	.	.	.
CCc1cc(=O)oc2cc(OC(C)=O)cc(OC(C)=O)c12	-	10µM	12µM	?	-
COc1cc(OCc2ccccc2)c2c(CCC(=O)O)cc(=O)oc2c1	-	-	-	-	-
COc1ccc(OC)c2c1C(=O)c1ccccc1C2=O	-	-	?	?	-
COc1ccc(OC)c2c1C(=O)C(Cl)=C(Cl)C2=O	-	-	-	-	35µM
CCOCCOCCC(C(=O)OCC)P(=O)(c1ccccc1)c1ccccc1 (stereo not drawn)	-	-	-	-	-
CCCc1nc(SCC(=O)c2ccccc2)c2c(=O)n(C)c(=O)n(C)c2n1	?	-	-	-	35µM
COc1ccc(OC)c(-c2csc(N3CCC(c4ccccc4)CC3)n2)c1	-	-[15.4 µM]	-	-	-
CCOC(=O)c1nc(Nc2cc(C)cc(C)c2)c2ccccc2n1	-	-[15.4 µM]	-	-	7.9µM
CC/C(C)=N/Nc1cccc([N+](=O)[O-])c1	-	-	-	-	-
O=C(c1ccc(C#Cc2ccccc2)o1)N1CCN(c2ccccn2)CC1	-	-	-	-	35µM
O=C(c1ccc(COc2ccccc2Br)o1)N1CCN(c2ccccn2)CC1	-	-	-	-	-
CCOC(=O)CN1C(=O)S/C(=C/C=C/c2ccc(N(C)C)cc2)C1=O	-	-[15.4 µM]	-	5.8µM	-
CC(=O)N1CCN(c2ccc(Nc3ncnc4c3oc3ccccc34)cc2)CC1	-	-	-	-	28µM
CCc1nc(Nc2ccc(N3CCN(C(C)=O)CC3)cc2)c2oc3ccccc3c2n1	-	-	-	-	-
COc1ccc(C(=O)Nc2ccc(Cl)c(S(=O)(=O)Nc3ccccc3OC)c2)cc1	-	-	-	-	-
O=C(Nc1cccc(Cl)c1)Nc1cccc(Cl)c1	-	-	-	-	35µM
O=C(CSc1ncnc2ccccc12)Nc1cccc(S(=O)(=O)N2CCCC2)c1	?	?	-	?	-
O=C(CSc1ncnc2ccccc12)Nc1cc(S(=O)(=O)N2CCCCC2)ccc1Cl	-	3.2µM	-	-	-
COc1ccccc1NS(=O)(=O)c1cccc(NC(=O)Nc2cccc(Cl)c2)c1	-	-	-	-	32µM
COc1ccccc1NS(=O)(=O)c1cc(NC(=O)c2ccc(Cl)nc2)ccc1Cl	.	-[15.4 µM]	-	-	32µM
Cc1nc2c3cc(Cl)ccc3n(CCN3CCCCC3)c2s1	-	-	-	-	-
O=C(NC(Cc1ccccc1)C(=O)O)/C(=C/c1ccc(Cl)cc1)NC(=O)c1ccco1 (stereo not drawn)	-	-	?	?	-
CCN(CC(=O)Nc1ccc2c(c1)OCCO2)C(=O)/C=C/c1cccc(Br)c1	.	-	-	-	-
COC(=O)C1=C(C(=O)OC)[C@@H]2N(C)c3ccc(OC)cc3[C@@]23C[C@@H](C(=O)OC)N(C(=O)COCc2ccccc2)C3=N1	-	.	-	-	-
SMILES	ASM inhibitor	gsp ag	Rango release inh	Rango complex inh	gsp antag
O=C(Nc1cccc(Cl)c1)Nc1cc(S(=O)(=O)N2CCCCC2)ccc1Cl	-	-	?	-	25µM
CN1CCN(S(=O)(=O)c2ccc(NC(=O)Nc3cccc(Cl)c3)cc2)CC1	-	-	-	-	-
COC(=O)c1cc(NC(=O)Nc2cccc(Cl)c2)ccc1Cl	-	-	-	-	25µM
COC(=O)c1cccc(NC(=O)Nc2ccc(Cl)cc2)c1	-	-[15.4 µM]	-	-	-
CCC(=O)N1CCc2cc(S(=O)(=O)CCC(=O)N3CCN(c4ccc(C(C)=O)cc4)CC3)ccc21	-	?	-	-	-
CCCCS(=O)(=O)Nc1ccc(C)cn1	-	-	-	-	-
CCn1nnc2cc(C(=O)Nc3cc(Cl)ccc3C)ccc21	-	?	-	-	-
O=C(Nc1ccccc1C(=O)Nc1ccccc1C(=O)O)c1ccccc1	-	-[15.4 µM]	-	-	?
O=C(O)c1ccccc1NC(=O)c1ccccc1Nc1ccccc1	-	-	-	-	32µM
CCCCCn1c(N2CCCC2)nc2c1c(=O)n(C)c(=O)n2C	-	-[15.4 µM]	-	-	?
Cn1c(=O)c2c(nc(N3CCCCC3)n2CCCNC2=NCCCC2)n(C)c1=O	-	13µM	-	-	-
